# How the values were obtained:
# guanosine [1] = assay: Reversibility of kethoxal derivatives by adjusting pH (kethoxal-guanosine adduct dissociation); format: physicochemical
# guanosine [2] = assay: Reactivity of kethoxal derivatives with guanosine (conversion rates of guanosine); format: biochemical
# guanosine [3] = assay: Reversibility of kethoxal derivatives using GTP for competition (LCMS of free guanosine); format: physicochemical; settings: 1:1 ratio
# single-stranded RNA = assay: Denaturing gel electrophoresis, selectivity for single-stranded RNA
# [4] = test system: N3-kethoxal labelled mRNA; assay: Dot blot analysis of reversibility of N3-kethoxal labelled mRNA with GTP; settings: 50 mM GTP at 95° C., 10 mins incubation
# mES cells = assay: Dot blot of total RNA from mES cells treated with N3-kethoxal (cell permeability)
# guanines on RNA = assay: MALDI-TOF analysis of RNA oligos reacted with N3-kethoxal; settings: for Labelling of RNA oligo: mass spectrum
molecule,measurement,setting,value
[N-]=[N+]=NCC(=O)C=O,Conversion of guanosine,"guanosine [1]; pH = 5.8, 10 min after adjusting from pH 10.1, 1:1 ratio",23.8%
same,Conversion of guanosine,"guanosine [1]; pH = 5.8, 4 h after adjusting from pH 10.1, 1:1 ratio",21.6%
same,Conversion of guanosine,"guanosine [1]; pH = 5.8, 24 h after adjusting from pH 10.1, 1:1 ratio",20.8%
same,Conversion of guanosine,"guanosine [1]; pH = 10.1, 10 min, kethoxal derivative and guanosine 1:1",24.5%
same,Conversion rate of guanosine,"guanosine [2]; pH = 7.0, S1:S2 = 1:1",33.7%
same,Conversion rate of guanosine,"guanosine [2]; pH = 7.0, S1:S2 = 1:2",55.4%
same,Conversion rate of guanosine,"guanosine [2]; pH = 7.0, S1:S2 = 1:4",76.3%
same,Conversion rate of guanosine,"guanosine [2]; pH = 7.0, S1:S2 = 2:1",16.8%
same,Conversion rate of guanosine,"guanosine [2]; pH = 7.8, S1:S2 = 1:1",60.4%
same,Conversion rate of guanosine,"guanosine [2]; pH = 7.8, S1:S2 = 1:2",79.4%
same,Conversion rate of guanosine,"guanosine [2]; pH = 7.8, S1:S2 = 1:3",85.4%
same,Conversion rate of guanosine,"guanosine [2]; pH = 7.8, S1:S2 = 2:1 (S1 guanosine, S2 kethoxal derivative)",33.4%
same,Conversion of guanosine under competition condition,"guanosine [3]; pH = 7.0, 10 min, excess GTP added after 10 min",34.6%
same,Conversion of guanosine under competition condition,"guanosine [3]; pH = 7.0, 2 h, excess GTP competitor",24.8%
same,Conversion of guanosine under competition condition,"guanosine [3]; pH = 7.0, 24 h, excess GTP competitor",12.4%
"3-(2-azidoethoxy)-1,1-dihydroxybutan-2-one",Gel shift (formation of RNA-kethoxal complex),single-stranded RNA; double-stranded RNA,no such shift was detected
same,Gel shift (formation of RNA-kethoxal complex),single-stranded RNA; single-stranded RNA,a shift was observed
same,Removal of N3-kethoxal modification in mRNA,[4],removed thoroughly
same,Time to label DNA and RNA in living cells,mES cells,≤ 5 min
same,Cell permeability,mES cells; living cells,highly cell-permeable
same,Labelling of guanines on RNA,guanines on RNA; MALDI-TOF analysis,efficiently labels guanines on RNA
same,Reactivity on other bases,guanines on RNA; MALDI-TOF analysis,no reactivity was observed on other bases
same,Labelling of RNA oligo,guanines on RNA; RNA 1 with four guanines,all guanines and only guanine were labelled
same,Labelling of RNA oligo,guanines on RNA; RNA 2 without guanine,no N3-kethoxal labelling was observed

# Reference: patent US20220143198A1, “COMPOSITIONS AND METHODS RELATED TO TETHERED KETHOXAL DERIVATIVES” (The University of Chicago, priority 2019, published 2022)
